# Experimental data taken from paper PMC9557897 (ACS Omega, 2022).
# Chains of the proteins cited; added tags and fusions are not shown. Residues count along the entry.
# UniProt P27958, 1027-1657 limits assumed: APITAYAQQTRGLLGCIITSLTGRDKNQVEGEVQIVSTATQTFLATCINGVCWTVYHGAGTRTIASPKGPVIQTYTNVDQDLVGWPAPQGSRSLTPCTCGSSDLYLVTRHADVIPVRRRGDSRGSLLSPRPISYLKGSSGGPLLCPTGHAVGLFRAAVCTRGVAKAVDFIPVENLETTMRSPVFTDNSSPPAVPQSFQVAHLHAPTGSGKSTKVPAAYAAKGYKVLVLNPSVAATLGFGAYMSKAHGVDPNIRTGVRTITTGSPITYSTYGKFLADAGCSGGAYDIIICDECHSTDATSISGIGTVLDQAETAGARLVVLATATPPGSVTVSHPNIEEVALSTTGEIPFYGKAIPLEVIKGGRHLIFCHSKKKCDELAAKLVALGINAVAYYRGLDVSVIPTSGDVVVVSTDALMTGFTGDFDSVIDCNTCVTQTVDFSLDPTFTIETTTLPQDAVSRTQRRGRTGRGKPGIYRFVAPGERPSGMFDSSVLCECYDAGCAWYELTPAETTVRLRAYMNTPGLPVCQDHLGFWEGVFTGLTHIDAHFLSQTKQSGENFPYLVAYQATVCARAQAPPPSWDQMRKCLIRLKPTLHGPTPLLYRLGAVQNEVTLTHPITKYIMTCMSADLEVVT
# UniProt P27958, 1658-1711 partner limits assumed: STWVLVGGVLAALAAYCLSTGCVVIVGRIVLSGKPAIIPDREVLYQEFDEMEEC
# Biological target: hepatitis C virus NS3/4A protease (Hepatitis C virus genotype 1a, UniProt P27958)
# Assay: HCV NS3/4A protease assay
# Type: biochemical
smiles,measurement,value
CC(C)OC(=O)[C@H](C)N[P@](=O)(OC[C@H]1O[C@@H](n2ccc(=O)[nH]c2=O)[C@](C)(F)[C@@H]1O)Oc1ccccc1 [Sovaldi],IC50,5.1 µM
